## Apparent affinities of Ab-14 variants for a coronavirus HR2 peptide

Source: Li et al. 2023 (doi:10.1038/s41467-023-39022-2), MIT Lincoln Laboratory and A-Alpha Bio; data file from the FLAb repository.

Target peptide (SARS-CoV-2 spike, HR2 region): PDVDLGDISGINAS

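The parent was found by panning a naive human phage display library on the peptide. Designed CDR sequences, proposed from the first random library and measured here. Several design methods are mixed in this list. The scFvs were displayed on barcoded MATa yeast, the peptide on MATalpha yeast. Pairs that bind mate more often; barcode pairs of the diploids are counted by sequencing. Scores were corrected for input abundance and mapped to Kd with protein pairs of known affinity run in the same pool. Each pool was mated in six replicate cultures.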

Parent scFv Ab-14: VH joined to VL by three GGGGS repeats. Changes lie in the light chain CDRs alone.
VH: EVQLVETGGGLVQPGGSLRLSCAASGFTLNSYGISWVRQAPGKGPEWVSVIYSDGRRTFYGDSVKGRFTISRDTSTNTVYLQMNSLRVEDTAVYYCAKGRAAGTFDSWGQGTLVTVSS
VL: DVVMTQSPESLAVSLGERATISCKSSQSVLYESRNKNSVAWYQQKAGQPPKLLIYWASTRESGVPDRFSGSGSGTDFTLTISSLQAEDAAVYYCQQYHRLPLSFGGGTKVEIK

Each variant is given by its three light chain CDRs, as the data file delimits them; those of the parent are KSSQSVLYESRNKNSVA, WASTRES, QQYHRLPLS. Affinities are written as log10 Kd with Kd in nM; a lower number is a better binder. Replicates are averaged; those with no signal do not enter the mean. "nd" marks a missing value. The strain was present, yet no cells mated with the target were sequenced in that replicate, which points to weak or no binding. Values of this round are not directly comparable with the first-round values of the same sequences. The authors' rule: three or more of the six replicates give a measured affinity, fewer mean a poor binder. The parent sequence was in this pool as ten entries: three were never detected, three once, and four in most replicates, with averages from 0.34 to 2.37. Three control strains display no target. For all light chain designs, 4% of the pairings with them gave a signal, with a median of 2.64 and one signal in twenty below 1.59, so weak values seen in few replicates may be background.

CDR-L1,CDR-L2,CDR-L3,log10 Kd (nM) by replicate,"mean, log10 nM"
IVSQLMVWGMHAKNSIA,EGETRLN,QQYDRLPLF,nd 1.10 0.73 3.17 1.32 1.62,1.59
KLGEQERMNGMANQNVA,AMNTRVD,QEYHRLPLI,0.37 0.43 0.14 0.00 0.18 0.39,0.25
FIGGNYNDKYQASNSIA,DEAHLMA,QQYDLLPLS,nd nd nd 2.49 nd nd,2.49
KLSQSQLYESRMKNSVA,NASTREM,QQYHRLPLS,0.10 0.21 0.26 -0.02 0.00 0.16,0.12
KIGATLNTLYEKKNNVA,DLVVREE,QQYHRLPLS,0.99 0.96 2.00 0.52 1.28 2.55,1.38
KSSQSVLYESRTKNSVA,WASTRES,QQYHRLPLS,1.51 1.50 0.93 0.87 2.13 2.02,1.49
KIQDNLGTLMEQINSVA,NSEEIVD,QSYFRLPLS,1.50 0.88 0.90 0.62 0.99 1.33,1.03
KLMVFPTNAGMTQANIA,DASHSLD,QQYERLPLM,0.65 0.47 0.63 0.44 0.50 0.59,0.54
IVSQLMLWGLHAKNSIA,EAEMRLN,QQYDRLPLF,nd nd nd 1.45 nd 0.89,1.17
NLYQSMNFLGRVMNSIA,DASTIPD,QQYHRLPLS,nd nd nd nd nd nd,nd
KLSQSGLYESRNKNSVA,GASTRES,QQYHRLPLS,-0.34 -0.36 -0.64 -0.57 -0.55 -0.28,-0.46
KLSMMYRYESENKNSIA,ELVTRMS,QQYHRLPLS,nd nd nd nd 0.82 nd,0.82
TIQQMMSLFSQTINNVA,EVSTREK,QQYDRLPLV,1.26 1.83 1.10 nd 2.37 nd,1.64
KLSISYLYESRNKNSVA,EASTRES,QQYHRLPLM,0.85 0.29 0.19 0.43 0.46 0.25,0.41
HISMTMNYLSRNKNSIA,EESTRED,QQYHRLPLS,nd nd nd nd nd nd,nd
KLDQSGLYGSRNKNSVA,EASCRES,QQYHRLPLY,0.69 0.60 0.94 0.79 0.67 1.11,0.80
KLSQSVLYESRNKNSVA,WASTREN,AQYHRLPVS,nd 1.93 nd 2.92 nd 3.80,2.88
KSSQSVLVESRNPNSVA,WASTRES,QQYPRLPLS,1.69 nd nd nd nd nd,1.69

Second part, the sequence after the result:

log10 Kd (nM) by replicate,"mean, log10 nM",CDR-L1,CDR-L2,CDR-L3
0.02 -0.05 -0.51 -0.45 -0.29 0.04,-0.21,KSSQSKLYESRNMNSVA,NASTRES,QQYHRLPLS
nd nd 2.27 nd nd nd,2.27,SLAFTLHFGQSGGSNVA,EVQMREQ,QQYFRLPLG
-0.07 -0.46 -0.19 -0.29 -0.40 -0.17,-0.26,KISQLNLYESRNKNSIA,NANTRES,QQYHRLPLS
0.13 -0.12 0.02 -0.05 0.08 0.10,0.03,KMSQSWLMEWRNKNSVA,DASLRES,QQYHRLPLS
0.74 0.21 0.05 0.49 0.42 0.35,0.38,QFSQSDPDESRNKNSVA,YASTRES,QQYCRLPLS
0.63 0.54 2.58 1.45 1.69 1.12,1.34,KGSQSVLYYSRNKNSVA,KASTRES,QQYHRLPLS
1.78 1.45 2.17 nd 2.02 1.74,1.83,MFSQLFMYGSRNYNSVA,QASTRET,QQYHRLPLI
0.42 0.55 0.55 0.62 0.74 0.61,0.58,KITQLVMETSKNKNNVA,EVSTVPD,QQYHRLPLS
nd nd nd nd nd nd,nd,KSSQGVLYESNNKNSVA,WASTRES,QLYHRLPLS
0.63 0.74 0.75 0.48 0.47 0.61,0.61,KLDASMYVGTEAKRAIA,QDEMLVH,QQYHRLPLM
nd nd nd nd nd nd,nd,KVSDPMVEWYANQSAVA,DHADAQH,QQYDRLPLS
-0.06 -0.04 -0.02 -0.23 -0.07 0.04,-0.06,HQWPSVLYESRNKNSVA,NGSTREV,QQYHRLPLS
-0.23 -0.53 -0.57 -0.55 -0.65 0.14,-0.40,KSSLSVLYESRNKNSVA,DASTRES,QQYHRLPLS
-0.27 -0.29 -0.59 -0.64 -0.33 -0.42,-0.42,KLSQQWEYESRNSNNVA,AASTRED,QQYHRLPLS
0.37 0.17 -0.02 0.09 0.09 0.35,0.17,QLGMTLKELSKVKNNVA,EMTTRLN,QQYYRLPLS
-0.13 -0.14 -0.20 -0.23 -0.08 0.11,-0.11,KLQQSWGYESRNKNSVA,NASQRES,QQYHRLPLS
1.76 2.04 1.91 2.28 1.54 1.60,1.86,KLSMLTEMEHVNRNSVA,ELVTRIS,QQYNRLPLS
0.15 -0.06 -0.18 -0.15 -0.03 0.05,-0.04,KLQQSWPYESRNKNSVA,NASTRES,QQYHRLPLS
0.77 0.88 0.70 0.51 0.77 0.90,0.76,KSSQSVEYESRDKNSVA,MASTRVS,QQYHRLPLS